The target in assay [1] is T1, extracellular Ca2+-sensing receptor (CaSR) (human (endogenous in parathyroid tissue)) (UniProt P41180).
T1 sequence: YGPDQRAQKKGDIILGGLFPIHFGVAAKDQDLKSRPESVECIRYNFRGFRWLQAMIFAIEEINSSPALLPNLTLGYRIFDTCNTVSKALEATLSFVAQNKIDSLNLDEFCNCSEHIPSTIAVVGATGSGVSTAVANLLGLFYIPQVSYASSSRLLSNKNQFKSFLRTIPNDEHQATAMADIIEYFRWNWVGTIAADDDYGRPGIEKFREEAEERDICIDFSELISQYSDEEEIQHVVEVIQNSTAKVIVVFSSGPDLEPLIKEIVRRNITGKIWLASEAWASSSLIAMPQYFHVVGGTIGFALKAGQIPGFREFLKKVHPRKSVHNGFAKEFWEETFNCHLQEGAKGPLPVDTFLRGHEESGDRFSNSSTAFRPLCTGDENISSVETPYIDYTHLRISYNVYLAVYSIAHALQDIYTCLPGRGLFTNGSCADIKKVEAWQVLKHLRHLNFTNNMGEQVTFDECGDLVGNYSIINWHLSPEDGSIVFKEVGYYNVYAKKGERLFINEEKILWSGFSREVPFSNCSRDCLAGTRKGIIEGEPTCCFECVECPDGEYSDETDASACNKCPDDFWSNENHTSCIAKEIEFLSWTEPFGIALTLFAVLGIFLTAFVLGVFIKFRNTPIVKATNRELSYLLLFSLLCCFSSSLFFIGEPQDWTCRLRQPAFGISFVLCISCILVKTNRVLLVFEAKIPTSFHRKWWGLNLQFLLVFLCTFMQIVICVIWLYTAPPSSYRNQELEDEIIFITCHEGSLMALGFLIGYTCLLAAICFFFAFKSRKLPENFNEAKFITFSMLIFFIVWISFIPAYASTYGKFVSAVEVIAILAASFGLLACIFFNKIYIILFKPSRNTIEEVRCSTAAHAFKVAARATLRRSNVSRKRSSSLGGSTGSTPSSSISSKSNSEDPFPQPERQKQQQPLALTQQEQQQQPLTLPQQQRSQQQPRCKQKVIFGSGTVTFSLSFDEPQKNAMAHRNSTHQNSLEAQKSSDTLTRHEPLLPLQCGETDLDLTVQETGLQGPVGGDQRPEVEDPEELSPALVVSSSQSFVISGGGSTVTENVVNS

The chains behind the UniProt entries cited, without tags or fusion partners. Residues count along the entry.
UniProt Q9UBS5, 20-961: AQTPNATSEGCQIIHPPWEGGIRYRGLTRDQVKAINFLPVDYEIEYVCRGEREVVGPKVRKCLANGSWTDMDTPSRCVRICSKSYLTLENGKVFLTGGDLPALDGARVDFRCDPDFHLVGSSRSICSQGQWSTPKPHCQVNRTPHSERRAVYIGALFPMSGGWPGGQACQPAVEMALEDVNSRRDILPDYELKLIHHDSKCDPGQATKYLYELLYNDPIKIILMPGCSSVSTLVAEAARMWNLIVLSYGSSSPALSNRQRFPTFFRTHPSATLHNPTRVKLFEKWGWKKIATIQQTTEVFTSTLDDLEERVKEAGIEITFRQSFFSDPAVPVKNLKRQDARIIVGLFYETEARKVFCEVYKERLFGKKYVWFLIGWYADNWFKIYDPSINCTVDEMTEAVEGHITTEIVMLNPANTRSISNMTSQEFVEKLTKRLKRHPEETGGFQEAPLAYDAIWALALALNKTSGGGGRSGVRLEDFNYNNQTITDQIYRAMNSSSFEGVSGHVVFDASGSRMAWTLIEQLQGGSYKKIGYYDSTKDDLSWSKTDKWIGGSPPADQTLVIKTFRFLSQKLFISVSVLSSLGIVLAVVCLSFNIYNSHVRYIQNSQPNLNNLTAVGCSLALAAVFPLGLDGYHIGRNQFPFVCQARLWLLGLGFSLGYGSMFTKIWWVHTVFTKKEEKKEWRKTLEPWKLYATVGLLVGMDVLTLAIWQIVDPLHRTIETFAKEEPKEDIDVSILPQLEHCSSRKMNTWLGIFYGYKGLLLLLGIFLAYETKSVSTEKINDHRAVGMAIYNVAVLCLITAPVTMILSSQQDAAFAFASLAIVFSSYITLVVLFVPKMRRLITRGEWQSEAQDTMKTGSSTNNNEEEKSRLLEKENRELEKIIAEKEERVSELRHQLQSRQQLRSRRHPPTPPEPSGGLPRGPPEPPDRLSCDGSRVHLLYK

The target in assay [2] is type B γ-aminobutyric acid receptor 1 (GABAB1R) (human (endogenous in parathyroid tissue)) (UniProt Q9UBS5).

Consider “β-amyloid peptide Aβ42 (Aβ1–42) (from UniProt P05067 672-713)”, for which the rate of PTH secretion of parathyroid glands cultured from PTCApp−/− mice (mouse receptors), Aβ42 0.3 to 1000 nM at 1 mM [Ca2+]e; EC50 in assay [1] and in assay [2] was 5.6 nM each time.

These data come from paper doi:10.1101/2025.05.27.25328314.
